Assay results from PubChem BioAssay (NCI).
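Following 48 hours of exposure in 96-well plates, responses at five concentrations were used to interpolate endpoints linearly. Here, GI50 denotes the concentration required for 50% inhibition of growth. Definition used: TGI = concentration required for complete inhibition of growth.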

Columns and labels:
Assay in all cases: NCI tumour cell line growth inhibition, 48 h
786-0 renal = system: 786-0 renal
A498 renal = system: A498 renal
A549 NSCLC = system: A549 NSCLC
ACHN renal = system: ACHN renal
BT-549 breast = system: BT-549 breast
CAKI-1 renal = system: CAKI-1 renal
CCRF-CEM leukemia = system: CCRF-CEM leukemia
COLO 205 colon = system: COLO 205 colon
DU-145 prostate = system: DU-145 prostate
EKVX NSCLC = system: EKVX NSCLC
HCC-2998 colon = system: HCC-2998 colon
HCT-116 colon = system: HCT-116 colon
HCT-15 colon = system: HCT-15 colon
HOP-62 NSCLC = system: HOP-62 NSCLC
HOP-92 NSCLC = system: HOP-92 NSCLC
HS 578T breast = system: HS 578T breast
HT29 colon = system: HT29 colon
KM12 colon = system: KM12 colon
LOX IMVI melanoma = system: LOX IMVI melanoma
M14 melanoma = system: M14 melanoma
MALME-3M melanoma = system: MALME-3M melanoma
MCF7 breast = system: MCF7 breast
MDA-MB-231 breast = system: MDA-MB-231 breast
MDA-MB-435 = system: MDA-MB-435
MDA-N = system: MDA-N
NCI-H226 lung = system: NCI-H226 lung
NCI-H23 lung = system: NCI-H23 lung
NCI-H322M lung = system: NCI-H322M lung
NCI-H460 lung = system: NCI-H460 lung
NCI-H522 lung = system: NCI-H522 lung
NCI/ADR-RES ovarian = system: NCI/ADR-RES ovarian
OVCAR-3 ovarian = system: OVCAR-3 ovarian
OVCAR-8 ovarian = system: OVCAR-8 ovarian
PC-3 prostate = system: PC-3 prostate
RPMI-8226 leukemia = system: RPMI-8226 leukemia
RXF 393 renal = system: RXF 393 renal
SF-268 CNS = system: SF-268 CNS
SF-295 CNS = system: SF-295 CNS
SF-539 CNS = system: SF-539 CNS
SK-MEL-2 melanoma = system: SK-MEL-2 melanoma
SK-MEL-5 melanoma = system: SK-MEL-5 melanoma
SK-OV-3 ovarian = system: SK-OV-3 ovarian
SN12C renal = system: SN12C renal
SNB-19 CNS = system: SNB-19 CNS
SW-620 colon = system: SW-620 colon
T-47D breast = system: T-47D breast
TK-10 renal = system: TK-10 renal
U251 CNS = system: U251 CNS
UACC-257 melanoma = system: UACC-257 melanoma
UACC-62 melanoma = system: UACC-62 melanoma
UO-31 renal = system: UO-31 renal

O=[N+]([O-])c1cc([N+](=O)[O-])c2nsnc2c1
GI50 (786-0 renal): 2.68 µM | TGI (786-0 renal): 9.86 µM | GI50 (A498 renal): 19.3 µM | TGI (A498 renal): 36.4 µM | GI50 (A549 NSCLC): 20.7 µM | TGI (A549 NSCLC): 39.1 µM | GI50 (ACHN renal): 3.3 µM | TGI (ACHN renal): 9.97 µM | GI50 (BT-549 breast): 16.3 µM | TGI (BT-549 breast): 30.5 µM | GI50 (CAKI-1 renal): 8.73 µM | TGI (CAKI-1 renal): 22 µM | GI50 (CCRF-CEM leukemia): 1.92 µM | TGI (CCRF-CEM leukemia): 4.95 µM | GI50 (COLO 205 colon): 8.15 µM | TGI (COLO 205 colon): 20.3 µM | GI50 (DU-145 prostate): 16.7 µM | TGI (DU-145 prostate): 31.4 µM | GI50 (EKVX NSCLC): 20.9 µM | TGI (EKVX NSCLC): 37.7 µM | GI50 (HCC-2998 colon): 19.7 µM | TGI (HCC-2998 colon): 35.9 µM | GI50 (HCT-116 colon): 2.67 µM | TGI (HCT-116 colon): 10.4 µM | GI50 (HCT-15 colon): 8.31 µM | TGI (HCT-15 colon): 21.5 µM | GI50 (HOP-62 NSCLC): 21.3 µM | TGI (HOP-62 NSCLC): 37.7 µM | GI50 (HOP-92 NSCLC): 20.3 µM | TGI (HOP-92 NSCLC): 35.6 µM | GI50 (HS 578T breast): 23.6 µM | TGI (HS 578T breast): 44 µM | GI50 (HT29 colon): 18.9 µM | TGI (HT29 colon): 33.8 µM | GI50 (KM12 colon): 19.3 µM | TGI (KM12 colon): 35.5 µM | GI50 (LOX IMVI melanoma): 1.8 µM | TGI (LOX IMVI melanoma): 4.51 µM | GI50 (M14 melanoma): 13.7 µM | TGI (M14 melanoma): 28.3 µM | GI50 (MALME-3M melanoma): 19.4 µM | TGI (MALME-3M melanoma): 35 µM | GI50 (MCF7 breast): 2.14 µM | TGI (MCF7 breast): 5.74 µM | GI50 (MDA-MB-231 breast): 18.6 µM | TGI (MDA-MB-231 breast): 34.7 µM | GI50 (MDA-MB-435): 19.8 µM | TGI (MDA-MB-435): 34.7 µM | GI50 (MDA-N): 15 µM | TGI (MDA-N): 28.2 µM | GI50 (NCI-H226 lung): 3.13 µM | TGI (NCI-H226 lung): 14.9 µM | GI50 (NCI-H23 lung): 17 µM | TGI (NCI-H23 lung): 35 µM | GI50 (NCI-H322M lung): 23.8 µM | TGI (NCI-H322M lung): 40.4 µM | GI50 (NCI-H460 lung): 17.8 µM | TGI (NCI-H460 lung): 33 µM | GI50 (NCI-H522 lung): 1.73 µM | TGI (NCI-H522 lung): 3.39 µM | GI50 (NCI/ADR-RES ovarian): 17.1 µM | TGI (NCI/ADR-RES ovarian): 33.6 µM | GI50 (OVCAR-3 ovarian): 4.68 µM | TGI (OVCAR-3 ovarian): 27.2 µM | GI50 (OVCAR-8 ovarian): 15.8 µM | TGI (OVCAR-8 ovarian): 30.3 µM | GI50 (PC-3 prostate): 15.5 µM | TGI (PC-3 prostate): 32.6 µM | GI50 (RPMI-8226 leukemia): 2.25 µM | TGI (RPMI-8226 leukemia): 5.8 µM | GI50 (RXF 393 renal): 5.46 µM | TGI (RXF 393 renal): 18.4 µM | GI50 (SF-268 CNS): 16.3 µM | TGI (SF-268 CNS): 30 µM | GI50 (SF-295 CNS): 23.2 µM | TGI (SF-295 CNS): 42.9 µM | GI50 (SF-539 CNS): 2.2 µM | TGI (SF-539 CNS): 4.81 µM | GI50 (SK-MEL-2 melanoma): 17.1 µM | TGI (SK-MEL-2 melanoma): 33.9 µM | GI50 (SK-MEL-5 melanoma): 15.6 µM | TGI (SK-MEL-5 melanoma): 29 µM | GI50 (SK-OV-3 ovarian): 18.8 µM | TGI (SK-OV-3 ovarian): 32.8 µM | GI50 (SN12C renal): 16.4 µM | TGI (SN12C renal): 33.6 µM | GI50 (SNB-19 CNS): 20 µM | TGI (SNB-19 CNS): 34.2 µM | GI50 (SW-620 colon): 2.72 µM | TGI (SW-620 colon): 9.46 µM | GI50 (T-47D breast): 2.56 µM | TGI (T-47D breast): 7.19 µM | GI50 (TK-10 renal): 5.68 µM | TGI (TK-10 renal): 16.1 µM | GI50 (U251 CNS): 18.2 µM | TGI (U251 CNS): 32.3 µM | GI50 (UACC-257 melanoma): 17 µM | TGI (UACC-257 melanoma): 30.7 µM | GI50 (UACC-62 melanoma): 13.6 µM | TGI (UACC-62 melanoma): 28 µM | GI50 (UO-31 renal): 4.63 µM | TGI (UO-31 renal): 17.7 µM
